The record followed here is patent EP0588622B1, “Bleach composition” (UNILEVER PLC, priority 1992, dated 1994).

Structures are written as SMILES.

Data set [1] in a line: Dye damage of dyed cloths stirred in peroxyacid solution (Examples II and IV), reflectance at 640 nm. The settings on record: for % dye damage: peroxyacid solution 0.000525 moles/l plus EDTA, 22-24°C, 30 minutes, blue disperse dyed nylon.
The nature of data set [2]: Stain bleaching, visual assessment of stained cloths after tergotometer wash (Example V). The settings on record: score 1 smallest, 4 greatest cleaning benefit, peroxyacid 9.2x10^-4 mol l^-1, 40°C, 30 minutes.
Data set [3] in a line: pKa determination by sodium hydroxide titration of peroxyacid solution. To be noted: Table II.
Data set [4] in a line: Dye damage in tergotometer wash with detergent base at pH 6 to 10 (Example III). To be noted: peroxyacid 9.2x10^-4 mole/l, detergent base 4 g/l, 40°C, 30 minutes.

Take `O=C(CCCCCCCCCCC(=O)OO)OO`: the “% DYE DAMAGE” value in data set [1] (method of Example II, Initial Active oxygen = 2,5x10^-4 g atoms/l, dissolved at ca. pH 10, lowered to ca. pH 4, filtered) is on record as 30.6 a) %.
The pKa is the negative logarithm of the acid dissociation constant. A low value points to a group that gives up its proton readily. `O=C(OO)c1ccccc1`: the Ranking in data set [2] (Washes at pH 9) was determined as 1.3; in data set [2] (Washes pH 6), 3. The molecule also gave a pKa in data set [3] of 7.78. The “% dye damage” value in data set [1] turned out to be 26.0%.
`O=C(CC1CC2CCC1C2)OO` (centres unmarked): the “% DYE DAMAGE” value in data set [4] (pH 6) turned out to be 41.1%; in data set [4] (pH 7), 41.7%; in data set [4] (pH 8), 30.7%; in data set [4] (pH 9) it was 9.3%; in data set [4] (pH 10), 4.8%. The “% dye damage” value in data set [1] is on record as 8.6%.
